{"sequences": {"note": "Amino acid sequences for entries named in this document (tags omitted).", "UniProt P70174, whole entry": "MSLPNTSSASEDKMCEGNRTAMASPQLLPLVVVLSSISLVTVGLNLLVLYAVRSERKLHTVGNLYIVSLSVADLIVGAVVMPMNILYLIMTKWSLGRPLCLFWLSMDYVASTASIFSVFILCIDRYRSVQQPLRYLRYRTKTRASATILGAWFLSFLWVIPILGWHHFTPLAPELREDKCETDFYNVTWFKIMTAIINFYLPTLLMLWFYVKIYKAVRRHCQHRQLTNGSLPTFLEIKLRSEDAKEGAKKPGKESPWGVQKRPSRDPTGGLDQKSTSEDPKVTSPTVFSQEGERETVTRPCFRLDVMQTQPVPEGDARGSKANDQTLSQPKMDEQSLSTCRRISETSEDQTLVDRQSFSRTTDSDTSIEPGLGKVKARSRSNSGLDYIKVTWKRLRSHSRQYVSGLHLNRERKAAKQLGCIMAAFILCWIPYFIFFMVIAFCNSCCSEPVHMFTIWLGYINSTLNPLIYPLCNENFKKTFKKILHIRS"}, "source": "patent US10799529B2", "about": "“Composition for preventing or treating spinal cord injury comprising imidazole-poly(organophosphazene) hydrogel” (priority 2018, dated 2020)", "target": "histamine receptor 1 (H1) (Mus musculus, UniProt P70174)", "details": "20 μM, 30 minutes before I-5 nanoparticles", "note": "Where a name gives a salt, the structure may show the parent alone.", "data": [{"smiles": "COc1ccc(CN(CCN(C)C)c2ccccn2)cc1", "note": "[mepyramine, mepyramine maleate]", "values": [{"measurement": "red fluorescence in macrophages after H1R inhibitor pretreatment", "result": "lower"}]}]}
